Measurements as given in patent publication US6846817B2 (Regents of the University of Minnesota, priority 1999, dated 2005).
Read-outs that look alike come from different tables or passages of the source.

Chains of the proteins cited; added tags and fusions are not shown. Residues count along the entry.
UniProt Q05941, 23-502: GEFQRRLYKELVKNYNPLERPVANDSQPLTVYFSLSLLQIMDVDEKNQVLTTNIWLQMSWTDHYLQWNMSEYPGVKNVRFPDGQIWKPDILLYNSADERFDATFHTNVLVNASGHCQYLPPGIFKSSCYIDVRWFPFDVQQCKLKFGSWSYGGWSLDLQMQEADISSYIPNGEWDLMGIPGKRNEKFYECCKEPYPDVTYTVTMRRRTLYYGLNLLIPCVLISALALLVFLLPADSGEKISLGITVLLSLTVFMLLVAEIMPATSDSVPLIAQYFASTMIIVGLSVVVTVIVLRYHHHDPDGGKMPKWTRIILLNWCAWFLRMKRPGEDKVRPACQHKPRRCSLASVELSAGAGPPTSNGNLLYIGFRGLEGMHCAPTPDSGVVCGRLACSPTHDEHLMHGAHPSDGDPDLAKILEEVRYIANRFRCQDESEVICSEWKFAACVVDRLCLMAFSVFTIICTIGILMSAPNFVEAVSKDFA

Target: α7 nicotine receptor (Rattus norvegicus, UniProt Q05941)
Test: biochemical
Format: binding

| SMILES | Ki [µM] | Ki (read-out: Ki-[125I]--BT) [µM] |
| --- | --- | --- |
| CN1CCCCC1C1CCc2ccccc2O1 (single isomer, unassigned) [Compound 1, erythro-2-(1-Methylpiperidin-2-yl)chroman] | > 10 | – |
| CN1CCCCC1C1CCc2ccccc2O1 (single isomer, unassigned) [Compound 6, threo-2-(1-Methylpiperidin-2-yl)chroman] | – | > 10 |
| CN1CCCCC1C1CCc2c(O)cccc2O1 (stereo not drawn) [Compound 2, erythro-5-Hydroxy-2-(1-methylpiperidin-2-yl)chroman] | – | > 10 |
